Test results: PubChem BioAssay AID651707 (NMMLSC, 2012)
The entries are a selection whose mix differs from that of the whole data set. Some results for these compounds are left out of this collection, so the calls shown say nothing about other tests. Calls of active or inactive are those of the source.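 The calls were made as follows: active = over 5% cells positive for green fluorescent reporter, or over 2% positive for both it and APC stain; inactive = the rest, inconclusive results apart.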

Experiment: intrinsic compound fluorescence in ER-HoxA9 progenitors, confirmation, artefact control for AML myeloid differentiation project, cell-based, flow cytometry, GFP/APC, Cherry Pick01 (AID 651707);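 also: range taken on the double positive population between DMSO and positive control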
Conditions: no estrogen, GFP autofluorescence flow cytometry, active compounds read high, vehicle wells 0%, positive control 100%
With `CCN(CC)CC(C)C(C)OC(=O)C(O)(c1ccccc1)c1ccccc1` (stereo unspecified) the fluorescence response was inactive: 0%.
